Reference: US7282508B2, “Substituted 4-phenyl-4-(1H-imidazol-2-yl)-piperidine derivatives and their use as selective non-peptide delta opioid agonists” (Janssen Pharmaceutica N.V., priority 2001, dated 2007)

Biological target: T1, cloned human δ opioid receptor (Homo sapiens, UniProt P41143)
T1 construct: expressed in transfected cells; host or cells: C6 glioma cells (membrane preparation)
Assay: Radioligand binding, competitive inhibition of [3H]DPDPE

COCC(=O)N1CCC(c2ccccc2)(c2nccn2Cc2ccc(C(=O)OC)cc2)CC1 [Compound 30]
pIC50: 7.90

pIC50: −log10 of the molar value.
